Target: D(2) dopamine receptor (Rattus norvegicus, UniProt P61169)
Assay: In vitro binding affinity towards rat Dopamine receptor D2 by [3H]spiperone displacement.

Protein sequences, listed by entry. Tags and fused reporters are not part of them.
UniProt P61169, whole entry: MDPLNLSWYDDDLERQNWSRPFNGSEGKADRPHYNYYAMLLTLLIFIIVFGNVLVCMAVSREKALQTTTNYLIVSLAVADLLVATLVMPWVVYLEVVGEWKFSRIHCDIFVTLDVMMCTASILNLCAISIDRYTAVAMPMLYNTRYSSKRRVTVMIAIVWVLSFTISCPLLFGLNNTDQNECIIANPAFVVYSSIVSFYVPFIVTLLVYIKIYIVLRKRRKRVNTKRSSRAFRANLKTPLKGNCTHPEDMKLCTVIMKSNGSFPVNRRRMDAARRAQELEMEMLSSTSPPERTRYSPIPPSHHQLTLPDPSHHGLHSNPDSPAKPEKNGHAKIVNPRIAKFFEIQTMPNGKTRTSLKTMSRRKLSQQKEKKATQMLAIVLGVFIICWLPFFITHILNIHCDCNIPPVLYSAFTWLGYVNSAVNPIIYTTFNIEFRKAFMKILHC

Compound | IC50
CN1CCc2cccc3c2[C@@H]1Cc1ccc(O)c(O)c1-3 [(S)APOMORPHINE] | 680 nM
CN1CCc2cccc3c2[C@H]1Cc1ccc(O)c(O)c1-3 [APOMORPHINE] | 21 nM

— ChEMBL document CHEMBL1125049, “Aporphines as antagonists of dopamine D-1 receptors” (J Med Chem, 1990)
